pKi: −log10 of the molar value.
Assays:
PIM3 = target: T1, PIM3 (Homo sapiens, UniProt Q86V86); assay: Pim-3 kinase enzymatic assay (Caliper LC3000, FAM-Pimtide substrate); assay type: biochemical; details: 55 pM PIM3, 10 μM ATP, 90 minutes; read-out: PIM3 LC3K (Ki)
T1 construct: made in house
Description: (§1) Reaction Buffer contained 10 mM HEPES, pH 7.2, 10 mM MgCl2, 0.01% Tween 20, 2 mM DTT.
(§2) PIM reactions were carried out in a final volume of 10 μL per well in a 384-well plate. […] The separation of product and substrate was optimized by choosing voltages and pressure using Caliper's Optimizer software (Hopkinton, Mass.). The separation conditions used a downstream voltage of −500V, an upstream voltage of −2150V, and a screening pressure of −1.2 psi. […] Substrate conversion was calculated from the electrophoregram using HTS Well Analyzer software (Caliper Life Sciences, Hopkinton, Mass.). Ki values for the test compound were calculated.

The chains behind the UniProt entries cited, without tags or fusion partners.
UniProt P11309, whole entry, stated change not applied: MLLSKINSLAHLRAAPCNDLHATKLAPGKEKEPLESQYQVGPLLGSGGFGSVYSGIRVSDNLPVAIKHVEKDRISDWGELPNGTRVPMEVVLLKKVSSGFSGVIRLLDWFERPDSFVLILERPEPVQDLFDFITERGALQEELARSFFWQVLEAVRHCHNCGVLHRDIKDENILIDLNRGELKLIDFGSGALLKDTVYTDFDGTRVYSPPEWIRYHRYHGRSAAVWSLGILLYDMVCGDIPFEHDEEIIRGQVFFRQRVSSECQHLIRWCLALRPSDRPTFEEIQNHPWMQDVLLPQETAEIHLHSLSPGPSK

BaF3 PIM1 cells = BaF3 PIM1 cells (Homo sapiens, UniProt P11309); assay: BaF3 PIM1 cell proliferation (Cell Titer Glo); assay type: cell-based; details: incubated overnight; read-out: Prolif BaF3_PIM1 (IC50)
Description: BaF3 parental line was obtained from the DSMZ repository. BaF3 lines transfected with PIM1 or PIM2 were generated. Mouse IL-3 was purchased from R&D Systems. G418 was purchased from Clontech. Media for BaF3 parental line contained RPMI, 10% FBS, 2 mM L-Glutamine, 2 ng/mL mIL-3. Media for BaF3 PIM1 & 2 lines contained RPMI, 10% FBS, 2 mM L-Glutamine, […]. Media for MM1.S line contained RPMI, 10% FBS, 2 mM L-Glutamine.
BaF3 parental cells, BaF3 PIM1 cells, BaF3 PIM2 cells, and MM1.S cells were seeded at 2 k/well, 5 k/well, 5 k/well, and 10 k/well respectively, in a 384-well plate, at 45 μL/well. Test compound was added at 5 μL/well. BaF3 cells (parental and transfected) were incubated overnight, while MM1.S cells were incubated for 72 hours at 37° C., 5% CO2. Cell Titer Glo Reagent (Promega) was added at 50 μL/well, the plates were incubated for 30 minutes, and their luminescence read on an HT Analyst. IC50/EC50 values for the test compound were calculated.

PIM1 = target: T2, PIM1 (Homo sapiens, UniProt P11309); assay: Pim-1 kinase enzymatic assay (Caliper LC3000, FAM-Pimtide substrate); assay type: biochemical; details: 20 pM PIM1, 10 μM ATP, 90 minutes; read-out: PIM1 LC3K (Ki)
T2 construct: made in house
Description: as §1, §2

pKi (PIM3): 9.59
GI50 (BaF3 PIM1 cells): 148 nM
pKi (PIM1): 9.58
SMILES: N[C@H]1CCCN(c2ccncc2NC(=O)c2csc(-c3c(F)cccc3F)n2)C1 [Example 46, (S)-N-(4-(3-aminopiperidin-1-yl)pyridin-3-yl)-2-(2,6-difluorophenyl)thiazole-4-carboxamide]

From US8435976B2, “4-substituted pyridin-3-yl-carboxamide compounds and methods of use” (F. Hoffmann-La Roche, priority 2009, dated 2013)
